Molecular target: XIAP BIR3 (Homo sapiens, UniProt P98170)
Test: biochemical

Protein sequences, listed by entry. Tags and fused reporters are not part of them. Residues count along the entry.
UniProt P98170, 241-356: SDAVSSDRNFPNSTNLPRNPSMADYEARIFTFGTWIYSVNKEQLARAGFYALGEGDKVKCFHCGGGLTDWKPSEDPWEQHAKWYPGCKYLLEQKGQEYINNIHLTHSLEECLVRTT

Question: Which Ki (Ki) does the source give for CC[C@H](N)C(=O)N[C@H]1CCC[C@H]2CC[C@@H](C(=O)NC(c3ccccc3)c3ccccc3)N2C1=O [Compound 34] here?
Answer: 0.02 µM

Question: What about the Ki (Ki (μM), Table 4, [5.3.0] bicyclic lactam system) of the same compound?
Answer: 0.02 ± 0.007 µM

Question: And the Ki (Ki (μM), Table 5)?
Answer: 0.022 µM

Question: What about the Ki (Ki, 5 nM SM5F and 0.030 μM XIAP-BIR3 protein) of the same compound?
Answer: 0.02 µM

— patent US7674787B2, “Conformationally constrained Smac mimetics and the uses thereof” (The Regents of the University of Michigan, priority 2004, dated 2010)
